SMILES strings stand for the structures. The list shows a part of the results, in another mix than the full data. Active and inactive are the calls of the source. Rule as the data show it: active = inhibition above about 21%; inactive = the rest.

This passage reports inhibition results from PubChem BioAssay AID453 (PCMD, 2006).

The target of the assay is Cathepsin B (Homo sapiens) (UniProt P07858). In words: human cathepsin B inhibitors, primary screen, biochemical, fluorogenic substrate (AID 453).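 Also: 0% = enzyme with no compound and 100% = no enzyme blank.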 The following applies: purified cathepsin B, fluorescence, active compounds read high,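 tested at 10 µM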.
By inhibition is commonly meant the drop in the measured response relative to a control, in per cent. Turning to `CP(=O)(Nc1ccccc1F)Oc1ccccc1` (stereo not drawn), the inhibition is inactive: -2.51%.
Consider `CCOP(C)(=S)SCC(=O)NC(C)(CC)C(=O)O` (stereo not drawn), for which the inhibition is inactive: 0.44%.
The result for `Cc1ccccc1NP(C)(=O)Nc1ccccc1C` reads inactive: 4.37%; that for `CP(=O)(Nc1ccc2c(c1)OCCO2)Oc1ccccc1` (stereo not drawn), inactive: 2.8%.
The result for `CN(C)CCOC(=O)C(O)(c1ccccc1)C1CCCCC1` (stereo not drawn) reads inactive: 2.49%.
In the case of `CP(=O)(Oc1ccccc1)N1CCOC1=O` (stereo not drawn) it was inactive: 3.77%; in that of `COc1ccccc1OP(C)(=O)Nc1c(C)n(C)n(-c2ccccc2)c1=O` (stereo not drawn), inactive: 2.83%; in that of `CCN(CC)CC(O)COC(=O)C(O)(c1ccccc1)C1CCCCC1` (stereo not drawn), inactive: 2.01%.
As to `CP(=O)(Nc1ccccn1)Oc1ccccc1` (stereo not drawn), the inhibition was inactive: 2.24%.
The result for `COc1ccccc1OP(C)(=O)Nc1ccc(C)c(C)c1` (stereo not drawn) reads inactive: 3.44%; that for `Cc1nc2ccc3ccccc3c2o1.O=[N+]([O-])c1cc([N+](=O)[O-])c(O)c([N+](=O)[O-])c1`, inactive: 2.11%; that for `COc1ccccc1OP(C)(=O)Nc1ccc(C)cc1` (stereo not drawn), inactive: -1.43%.
For `Cc1ccc(NP(C)(=O)Oc2ccccc2)c(C)c1` (stereo not drawn), the inhibition is inactive: 0.21%.
In the case of `CP(=O)(NC(=O)Nc1ccccc1)Oc1ccccc1` (stereo not drawn) it was inactive: -2.25%; in that of `CCOP(C)(=S)SCC(=O)NC(C)C(=O)O` (stereo not drawn), inactive: 11.5%.
The result for `CP(=S)(Nn1cnnc1)Oc1ccccc1` (stereo not drawn) reads inactive: 5.28%; that for `Cc1nc2ccc3ccccc3c2s1.O=[N+]([O-])c1cc([N+](=O)[O-])c(O)c([N+](=O)[O-])c1`, inactive: 0.33%.
Turning to `Cc1ccc(C)c(NP(C)(=O)Oc2ccccc2)c1` (stereo not drawn), the inhibition was inactive: 1.44%.
